Measured values taken from patent US20240058422A1, “GLUCAGON-LIKE PEPTIDE-1 RECEPTOR ANTAGONISTS” (INDIANA UNIVERSITY RESEARCH AND TECHNOLOGY CORPORATION, priority 2022, published 2024).

Sequences of proteins named here, by UniProt entry; tags and fusion partners are left off. A change or cut given only in a name is not applied to a line headed by its entry.
UniProt P43220: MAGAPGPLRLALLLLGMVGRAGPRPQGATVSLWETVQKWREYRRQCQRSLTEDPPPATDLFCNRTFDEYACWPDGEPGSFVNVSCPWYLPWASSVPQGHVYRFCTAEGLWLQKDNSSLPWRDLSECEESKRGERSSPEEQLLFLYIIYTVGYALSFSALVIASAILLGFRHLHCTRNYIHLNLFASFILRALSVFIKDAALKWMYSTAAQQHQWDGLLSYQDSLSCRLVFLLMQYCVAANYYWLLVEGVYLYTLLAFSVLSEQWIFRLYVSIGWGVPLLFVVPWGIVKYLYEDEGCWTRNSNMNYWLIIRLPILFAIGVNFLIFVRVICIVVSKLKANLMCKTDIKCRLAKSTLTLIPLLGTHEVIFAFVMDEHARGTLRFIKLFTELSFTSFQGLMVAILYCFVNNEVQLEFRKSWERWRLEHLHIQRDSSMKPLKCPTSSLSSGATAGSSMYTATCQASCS

Target: human GLP-1 receptor (human, UniProt P43220 24-463)
Assay: cell-based or functional assay

| Binder | IC50 (nM): block of cAMP induction by GLP-1 (0.05 nM), luciferase reporter in HEK 293 cells with human GLP-1 receptor [nM] |
| --- | --- |
| DLWKQMEEEAVRLFIEWLKNGGPSSGAPPPSK (K40(C18 DiAcid); C-terminal amide (-NH2)) [Ex9-40amide, W11, K40 (C18 diacid)] | 43 |
| DLWKQMEEEAVRLFIEWLKNGGPSSGAPPPSK (K40(mPeg-gE(C18 diacid)); C-terminal amide (-NH2)) [Ex9-40amide, W11, K40 (mPeg-γE-C18 diacid)] | 87 |
